{
  "sequences": {"note": "Amino acid sequences for entries named in this document (tags omitted).", "UniProt P30542, whole entry": "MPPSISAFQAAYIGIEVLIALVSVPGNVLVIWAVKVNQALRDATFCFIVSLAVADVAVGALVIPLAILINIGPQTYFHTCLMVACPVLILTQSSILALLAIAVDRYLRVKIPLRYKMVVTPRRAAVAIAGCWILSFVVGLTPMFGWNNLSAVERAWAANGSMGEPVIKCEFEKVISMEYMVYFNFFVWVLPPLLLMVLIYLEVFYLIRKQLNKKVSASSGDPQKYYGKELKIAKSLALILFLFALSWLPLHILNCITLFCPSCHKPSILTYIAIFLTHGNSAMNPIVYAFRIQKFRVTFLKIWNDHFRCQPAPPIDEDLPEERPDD"},
  "source": "patent EP1673354B1",
  "about": "“ARYLINDENOPYRIDINES AND ARYLINDENOPYRIMIDINES AND THEIR USE AS ADENOSINE A2A RECEPTOR ANTAGONISTS” (Ortho-McNeil Pharmaceutical, Inc., priority 2003, dated 2005)",
  "target": "Adenosine A1 receptor (Homo sapiens, UniProt P30542)",
  "experiment": "A1 antagonist function (no method described)",
  "format": "cell-based",
  "data": [
    {"smiles": "Nc1nc(-c2cccs2)c2c(n1)-c1ccccc1C2=O", "note": "[Compound 14, 2-amino-4-thiophen-2-yl-indeno[1,2-d]pyrimidin-5-one]", "values": [
      {"measurement": "Ki", "result": 3.19, "unit": "nM"}
    ]}
  ]
}
